{"sequences": {"note": "The chains behind the UniProt entries cited, without tags or fusion partners.", "UniProt P35372, whole entry": "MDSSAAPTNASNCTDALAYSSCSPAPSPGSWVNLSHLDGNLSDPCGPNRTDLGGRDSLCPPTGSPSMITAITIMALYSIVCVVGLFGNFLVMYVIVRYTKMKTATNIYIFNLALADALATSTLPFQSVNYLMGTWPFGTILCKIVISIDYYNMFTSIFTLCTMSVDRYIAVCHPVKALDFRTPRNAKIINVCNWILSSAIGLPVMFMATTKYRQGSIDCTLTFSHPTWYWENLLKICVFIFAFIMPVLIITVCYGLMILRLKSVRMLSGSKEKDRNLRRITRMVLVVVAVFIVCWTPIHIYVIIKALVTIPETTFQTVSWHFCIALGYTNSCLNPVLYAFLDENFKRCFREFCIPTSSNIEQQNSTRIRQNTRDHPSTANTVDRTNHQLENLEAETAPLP"}, "source": "paper PMC7025522", "about": "“Desmetramadol Is Identified as a G-Protein Biased µ Opioid Receptor Agonist” (Frontiers in Pharmacology, 2020)", "key": {"[1]": {"molecular_target": "T1, human µ opioid receptor (MOR); OPRM1 (cAMP Hunter CHO-K1 OPRM1 Gi cells) (Homo sapiens, UniProt P35372)", "T1 construct": "receptor expressed in CHO-K1 cells (commercial cAMP Hunter CHO-K1 OPRM1 Gi line, Eurofins-DiscoverX)", "experiment": "cell-based"}, "[2]": {"molecular_target": "T2, human µ opioid receptor (MOR); OPRM1 (PathHunter CHO-K1 OPRM1 β-Arrestin cells) (Homo sapiens, UniProt P35372)", "T2 construct": "receptor in CHO-K1 cells (commercial PathHunter CHO-K1 OPRM1 β-Arrestin line, Eurofins-DiscoverX); beta-galactosidase fragment complementation with βarrestin2 as read-out", "experiment": "cell-based"}}, "data": [{"compound": "CN(C)C[C@@H]1CCCC[C@@]1(O)c1cccc(O)c1", "note": "[(-)-Desmetramadol]", "values": [{"measurement": "EC50", "setting": "[1]", "value": "2.43 ± 0.469", "unit": "µM"}, {"measurement": "EC50", "setting": "[2]", "value": "> 100", "unit": "µM"}]}]}
